Data published in patent US20040242853A1.

Target: T1, human GLP-1 receptor (CHO cells stably transfected with the human GLP-1 receptor) (human), P43220
T1 chain: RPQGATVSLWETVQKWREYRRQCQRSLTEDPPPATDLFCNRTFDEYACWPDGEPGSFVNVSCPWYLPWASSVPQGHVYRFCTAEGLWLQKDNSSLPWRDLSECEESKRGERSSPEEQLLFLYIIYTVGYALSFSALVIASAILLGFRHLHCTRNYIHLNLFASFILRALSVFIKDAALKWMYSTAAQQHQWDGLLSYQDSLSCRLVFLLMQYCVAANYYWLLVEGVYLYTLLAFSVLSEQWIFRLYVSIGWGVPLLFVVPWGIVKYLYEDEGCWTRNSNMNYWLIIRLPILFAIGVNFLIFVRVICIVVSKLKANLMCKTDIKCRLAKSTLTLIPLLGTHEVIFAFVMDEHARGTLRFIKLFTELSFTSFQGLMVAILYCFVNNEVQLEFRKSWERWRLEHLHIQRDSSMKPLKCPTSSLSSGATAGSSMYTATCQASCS
Experiment: displacement of 125I-GLP-1 from intact CHO/GLP-1R cells (Example 9)

HGEGTFTSDVSSYLEGQAAKEFIAWLVKGRPSSGAP (modifications not checked) [GLP-1 Gly8(7-36) Exendin(31-36)]
IC50: 129 nM

HGEGTFTSDVSSYLEGQAAKEFIAWLVKGRPSS (modifications not checked) [GLP-1 Gly8(7-36) Exendin(31-33)]
IC50: 34.5 nM
